Data: article PMC8909805, “Anticancer Activity of (S)-5-Chloro-3-((3,5-dimethylphenyl)sulfonyl)-N-(1-oxo-1-((pyridin-4-ylmethyl)amino)propan-2-yl)-1H-indole-2-carboxamide (RS4690), a New Dishevelled 1 Inhibitor” (Cancers, 2022)

B1: peptide mimicking the C-terminal portion of TMEM88 (residues 153-159, TSGKVWV), dansylated at its N-terminus (peptide)
peptide: TSGKVWV
modifications: dansyl group covalently linked to its N-terminus
notes: C-terminal portion of TMEM88, residues 153 to 159
B2: DVL1 PDZ domain (domain or fragment)
chain: LNIVTVTLNMERHHFLGISIVGQSNDRGDGGIYIGSIMKGGAVAADGRIEPGDMLLQVNDVNFENMSNDDAVRVLREIVSQTGPISLTVAKCWDP

Legend:
Settings in all cases: both partners purified
[1] = biological target: B2; test: other fluorescence titration; equilibrium binding in solution; 1 uM dansyl-peptide constant, DVL1 PDZ domain 2-38 uM; FRET emission (excitation 280 nm, fitted at 540 nm), hyperbolic fit; sodium phosphate 50 mM, DMSO 20% v/v, pH 7.2, 25 °C; no compound
[2] = biological target: B1; test: other fluorescence titration; as a1, in the presence of a constant 1 uM of the small molecule (S)-1
[3] = biological target: B1; test: other fluorescence titration; as a1, in the presence of a constant 1 uM of the small molecule (R)-1

Row | Binder | Kd [1] [µM] | Kd in the presence of 1 µM of the small-molecule inhibitor (S)-1 [2] [µM] | Kd in the presence of 1 µM of the small molecule (R)-1 [3] [µM]
1 | B1 | 11.5 ± 0.5 |  | 
2 | B2 |  | 20.8 ± 0.5 | 12.3 ± 0.6
